Assay results published in IntAct's records for PubMed 25910212.

B1: Optineurin (Homo sapiens), Q96CV9 (parent)
chain: MSHQPLSCLTEKEDSPSESTGNGPPHLAHPNLDTFTPEELLQQMKELLTENHQLKEAMKLNNQAMKGRFEELSAWTEKQKEERQFFEIQSKEAKERLMALSHENEKLKEELGKLKGKSERSSEDPTDDSRLPRAEAEQEKDQLRTQVVRLQAEKADLLGIVSELQLKLNSSGSSEDSFVEIRMAEGEAEGSVKEIKHSPGPTRTVSTGTALSKYRSRSADGAKNYFEHEELTVSQLLLCLREGNQKVERLEVALKEAKERVSDFEKKTSNRSEIETQTEGSTEKENDEEKGPETVGSEVEALNLQVTSLFKELQEAHTKLSEAELMKKRLQEKCQALERKNSAIPSELNEKQELVYTNKKLELQVESMLSEIKMEQAKTEDEKSKLTVLQMTHNKLLQEHNNALKTIEELTRKESEKVDRAVLKELSEKLELAEKALASKQLQMDEMKQTIAKQEEDLETMTILRAQMEVYCSDFHAERAAREKIHEEKEQLALQLAVLLKENDAFEDGGRQSLMEMQSRHGARTSDSDQQAYLVQRGAEDRDWRQQRNIPIHSCPKCGEVLPDIDTLQIHVMDCII
B2: Optineurin (Homo sapiens), Q96CV9 (parent)
chain: B1 chain
partner: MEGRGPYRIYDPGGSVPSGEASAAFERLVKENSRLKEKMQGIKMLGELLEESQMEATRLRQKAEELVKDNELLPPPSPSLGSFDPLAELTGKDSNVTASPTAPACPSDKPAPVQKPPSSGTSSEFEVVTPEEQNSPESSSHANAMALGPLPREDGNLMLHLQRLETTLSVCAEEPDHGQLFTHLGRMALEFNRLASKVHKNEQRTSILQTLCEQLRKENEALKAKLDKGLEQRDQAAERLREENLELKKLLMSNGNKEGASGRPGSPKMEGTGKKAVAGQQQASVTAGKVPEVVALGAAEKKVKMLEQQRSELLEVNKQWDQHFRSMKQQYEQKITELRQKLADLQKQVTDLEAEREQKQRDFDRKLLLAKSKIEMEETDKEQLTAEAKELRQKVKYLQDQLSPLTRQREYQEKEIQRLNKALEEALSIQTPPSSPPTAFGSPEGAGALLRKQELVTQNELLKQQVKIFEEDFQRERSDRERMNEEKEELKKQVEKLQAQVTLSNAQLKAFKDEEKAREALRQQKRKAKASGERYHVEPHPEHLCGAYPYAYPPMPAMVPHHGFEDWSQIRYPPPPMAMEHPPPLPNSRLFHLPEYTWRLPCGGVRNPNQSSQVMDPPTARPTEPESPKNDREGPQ
B3: Ferritin light chain (Homo sapiens), P02792 (parent)
chain: MSSQIRQNYSTDVEAAVNSLVNLYLQASYTYLSLGFYFDRDDVALEGVSHFFRELAEEKREGYERLLKMQNQRGGRALFQDIKKPAEDEWGKTPDAMKAAMALEKKLNQALLDLHALGSARTDPHLCDFLETHFLDEEVKLIKKMGDHLTNLHRLGGPEAGLGEYLFERLTLKHD
B4: Optineurin (Homo sapiens), Q96CV9 (parent)
chain: B1 chain
partner: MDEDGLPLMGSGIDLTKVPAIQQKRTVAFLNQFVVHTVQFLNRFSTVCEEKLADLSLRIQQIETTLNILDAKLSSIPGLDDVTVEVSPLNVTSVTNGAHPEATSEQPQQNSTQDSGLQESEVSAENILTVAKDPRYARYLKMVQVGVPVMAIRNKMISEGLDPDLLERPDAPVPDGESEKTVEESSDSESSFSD
B5: Optineurin (Homo sapiens), Q96CV9 (parent)
chain: B1 chain
partner: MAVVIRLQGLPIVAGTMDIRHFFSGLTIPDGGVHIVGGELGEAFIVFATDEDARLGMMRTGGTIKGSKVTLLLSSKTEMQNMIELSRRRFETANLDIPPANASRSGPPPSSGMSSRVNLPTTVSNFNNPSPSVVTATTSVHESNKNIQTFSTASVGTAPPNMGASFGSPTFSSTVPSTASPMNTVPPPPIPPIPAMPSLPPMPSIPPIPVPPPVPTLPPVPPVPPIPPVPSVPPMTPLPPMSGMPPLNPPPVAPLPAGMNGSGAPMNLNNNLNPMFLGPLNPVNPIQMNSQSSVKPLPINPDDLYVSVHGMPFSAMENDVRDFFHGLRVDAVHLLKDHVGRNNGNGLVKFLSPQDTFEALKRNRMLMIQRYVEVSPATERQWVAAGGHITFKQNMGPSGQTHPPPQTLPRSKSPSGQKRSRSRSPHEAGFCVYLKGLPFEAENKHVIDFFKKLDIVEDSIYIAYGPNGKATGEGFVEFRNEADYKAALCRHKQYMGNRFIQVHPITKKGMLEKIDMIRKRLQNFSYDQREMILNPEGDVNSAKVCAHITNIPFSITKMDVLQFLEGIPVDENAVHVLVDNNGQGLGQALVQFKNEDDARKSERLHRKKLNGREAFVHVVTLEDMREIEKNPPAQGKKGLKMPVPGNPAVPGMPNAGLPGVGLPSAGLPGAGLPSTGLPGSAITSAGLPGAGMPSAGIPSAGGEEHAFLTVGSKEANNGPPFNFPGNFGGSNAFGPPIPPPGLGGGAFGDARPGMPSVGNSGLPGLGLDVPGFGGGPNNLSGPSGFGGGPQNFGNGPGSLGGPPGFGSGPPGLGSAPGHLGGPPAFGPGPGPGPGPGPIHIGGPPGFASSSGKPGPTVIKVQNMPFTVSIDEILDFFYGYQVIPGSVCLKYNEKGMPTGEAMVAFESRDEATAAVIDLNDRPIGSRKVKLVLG
B6: Tumor necrosis factor receptor superfamily member 5 (Homo sapiens), P25942 (parent)
chain: MVRLPLQCVLWGCLLTAVHPEPPTACREKQYLINSQCCSLCQPGQKLVSDCTEFTETECLPCGESEFLDTWNRETHCHQHKYCDPNLGLRVQQKGTSETDTICTCEEGWHCTSEACESCVLHRSCSPGFGVKQIATGVSDTICEPCPVGFFSNVSSAFEKCHPWTSCETKDLVVQQAGTNKTDVVCGPQDRLRALVVIPIIFGILFAILLVLVFIKKVAKKPTNKAPHPKQEPQEINFPDDLPGSNTAAPVQETLHGCQPVTQEDGKESRISVQERQ
partner: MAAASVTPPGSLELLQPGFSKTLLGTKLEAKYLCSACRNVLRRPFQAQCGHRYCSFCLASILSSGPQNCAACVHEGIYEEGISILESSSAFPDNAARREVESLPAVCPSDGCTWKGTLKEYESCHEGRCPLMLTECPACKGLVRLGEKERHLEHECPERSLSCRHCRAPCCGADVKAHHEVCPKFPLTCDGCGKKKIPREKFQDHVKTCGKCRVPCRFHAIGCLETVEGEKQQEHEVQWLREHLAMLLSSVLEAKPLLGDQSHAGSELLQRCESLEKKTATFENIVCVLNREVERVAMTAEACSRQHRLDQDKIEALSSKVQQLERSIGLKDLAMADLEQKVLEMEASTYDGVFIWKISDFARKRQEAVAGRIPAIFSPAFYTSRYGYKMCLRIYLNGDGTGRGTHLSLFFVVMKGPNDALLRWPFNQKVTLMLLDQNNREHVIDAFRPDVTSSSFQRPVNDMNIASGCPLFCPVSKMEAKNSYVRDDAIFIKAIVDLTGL

Variants of: B1
Details: with cdc23_human CDC23

Row | Variant | effect of a mutation on the interaction
1 | E50K | with no effect
2 | T202R | disrupting interaction strength
3 | A336G | disrupting interaction strength
4 | K435R | with no effect

Variants of: B1
Details: with cdc23_human CDC23
Remark: another data set of the same source

Row | Variant | effect of a mutation on the interaction
5 | T202R | with no effect
6 | A336G | with no effect

Variants of: B2
Details: with tnip1_human TNIP1, Q15025

Row | Variant | effect of a mutation on the interaction
7 | E50K | causing an interaction

Variants of: B2
Details: with tnip1_human TNIP1, Q15025
Remark: another data set of the same source

Row | Variant | effect of a mutation on the interaction
8 | E50K | with no effect
9 | T202R | with no effect
10 | K435R | with no effect
11 | A336G | with no effect

Variants of: B3
Details: with frih_human FTH1, P02794

Row | Variant | effect of a mutation on the interaction
12 | MSSQIRQNYSTDVEAAVNSLVNLYLQASYTYLSLGFYFDRDDVALEGVSHFFRELAEEKREGYERLLKMQNQRGGRALFQDIKKPAEDEWGKTPDTMKAAMALEKKLNQALLDLHALGSARTDPHLCDFLETHFLDEEVKLIKKMGDHLTNLHRLGGPEAGLGEYLFERLTLKHD | disrupting interaction strength
13 | MSSQIRQNYSTDVEAAVNSLVNLYLQASYTYLSLGFYFDRDDVALEGVSHFFRELAEEKREGYERLLKMQNQRGGRALFQDIKKPAEDEWGKTPDAMKAAMALEKKLNQALLDLHALGSARTDPHLCDFLETPFLDEEVKLIKKMGDHLTNLHRLGGPEAGLGEYLFERLTLKHD | disrupting interaction strength

Variants of: B4
Details: with wasc3_human WASHC3, Q9Y3C0

Row | Variant | effect of a mutation on the interaction
14 | E50K | with no effect
15 | T202R | with no effect
16 | A336G | with no effect
17 | K435R | with no effect

Variants of: B5
Details: with rbm12_human RBM12, Q9NTZ6

Row | Variant | effect of a mutation on the interaction
18 | T202R | with no effect
19 | K435R | with no effect
20 | E50K | with no effect
21 | A336G | with no effect

Variants of: B6
Details: with traf2_human TRAF2, Q12933

Row | Variant | effect of a mutation on the interaction
22 | MVRLPLQCVLWGCLLTAVHPEPPTACREKQYLINSQCCSLCQPGQKLVSDCTEFTETECLPCGESEFLDTWNRETHCHQHKYCDPNLGLRVQQKGTSETDTICTCEEGWHCTSEACESCVLHRSCSPGFGVKQIATGVSDTICEPCPVGFFSNVSSAFEKCHPWTSCETKDLVVQQAGTNKTDVVCGPQDRLRALVVIPIIFGILFAILLVLVFIKKVAKKPTNKAAHPKQEPQEINFPDDLPGSNTAAPVQETLHGCQPVTQEDGKESRISVQERQ [P227A] | with no effect
